This passage reports ER value results from US10889805B2, “Intestinal epithelioid cells” (National Institutes of Biomedical Innovation, Health and …, priority 2015, dated 2021).

Sequences of proteins named here, by UniProt entry; tags and fusion partners are left off.
UniProt P08183, whole entry: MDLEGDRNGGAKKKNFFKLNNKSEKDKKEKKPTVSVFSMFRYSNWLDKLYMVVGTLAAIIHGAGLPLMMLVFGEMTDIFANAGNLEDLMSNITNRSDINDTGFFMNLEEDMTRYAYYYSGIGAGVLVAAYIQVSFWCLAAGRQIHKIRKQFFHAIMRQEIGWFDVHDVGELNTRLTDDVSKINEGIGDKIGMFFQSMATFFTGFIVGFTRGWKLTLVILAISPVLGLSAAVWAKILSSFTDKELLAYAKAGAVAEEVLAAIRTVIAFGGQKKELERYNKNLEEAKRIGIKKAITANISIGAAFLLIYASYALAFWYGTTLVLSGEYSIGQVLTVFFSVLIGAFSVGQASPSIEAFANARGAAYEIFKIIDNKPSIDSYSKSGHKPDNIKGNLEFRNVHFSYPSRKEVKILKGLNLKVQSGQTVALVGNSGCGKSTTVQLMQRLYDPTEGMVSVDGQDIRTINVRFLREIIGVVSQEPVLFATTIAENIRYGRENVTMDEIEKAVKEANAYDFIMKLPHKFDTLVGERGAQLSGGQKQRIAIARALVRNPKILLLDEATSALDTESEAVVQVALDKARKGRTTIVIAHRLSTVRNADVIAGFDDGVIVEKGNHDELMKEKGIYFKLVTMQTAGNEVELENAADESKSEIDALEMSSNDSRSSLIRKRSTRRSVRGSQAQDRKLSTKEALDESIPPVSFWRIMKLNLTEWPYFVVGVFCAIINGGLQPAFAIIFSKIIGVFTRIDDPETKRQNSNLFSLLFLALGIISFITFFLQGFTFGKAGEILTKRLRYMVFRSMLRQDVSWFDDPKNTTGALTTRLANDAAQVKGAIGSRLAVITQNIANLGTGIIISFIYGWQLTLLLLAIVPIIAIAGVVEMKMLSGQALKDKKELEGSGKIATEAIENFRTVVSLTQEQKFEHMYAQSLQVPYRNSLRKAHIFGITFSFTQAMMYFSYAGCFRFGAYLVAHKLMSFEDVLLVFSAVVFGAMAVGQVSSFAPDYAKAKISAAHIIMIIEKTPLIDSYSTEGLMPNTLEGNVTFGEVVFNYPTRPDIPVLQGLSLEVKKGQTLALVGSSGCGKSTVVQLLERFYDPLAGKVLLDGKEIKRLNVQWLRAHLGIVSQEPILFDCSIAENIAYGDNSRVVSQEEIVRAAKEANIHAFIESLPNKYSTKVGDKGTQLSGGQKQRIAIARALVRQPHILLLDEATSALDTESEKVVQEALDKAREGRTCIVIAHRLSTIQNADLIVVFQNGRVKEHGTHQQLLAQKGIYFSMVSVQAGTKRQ

For the data set, the target named is P-gp (Homo sapiens, UniProt P08183). To be noted: 10 μM.

Substance Rhodamine 123 displayed an ER value of 2.1.
